Results published in ChEMBL document CHEMBL3091322 (J Med Chem, 2013).

Species on record: Rattus norvegicus
Assay: Selectivity ratio of Ki for Sprague-Dawley rat brain frontal cortex NET to Ki for Sprague-Dawley rat brain stem SERT
Type: tissue-based

SMILES	Ratio Ki
CN(C)CCCC1(c2ccc(F)cc2)OCc2cc(CN3CCOCC3)ccc21 (racemic)	5880
CCCCN(C)CCCC1(c2ccc(F)cc2)OCc2cc(C#N)ccc21 (racemic)	4.5
